Residue numbers refer to the chain shown, from its start. Values joined by “and” are separate entries in the source; they are usually repeats but may differ in a detail not shown here. Equal entries are not always repeated.
Legend:
hSGLT2 D201A = biological target: T1, hSGLT2 D201A (Homo sapiens, UniProt P31639, D201A); test: SGLT2 inhibitor-binding assay (AS-MS), crude membrane, D201A mutant; set-up: expressed in transfected cells; host or cells: Expi293 cells, crude membrane fraction; details: for Binding Mean: Eadie–Hofstee
T1 sequence (P31639 1-672 D201A): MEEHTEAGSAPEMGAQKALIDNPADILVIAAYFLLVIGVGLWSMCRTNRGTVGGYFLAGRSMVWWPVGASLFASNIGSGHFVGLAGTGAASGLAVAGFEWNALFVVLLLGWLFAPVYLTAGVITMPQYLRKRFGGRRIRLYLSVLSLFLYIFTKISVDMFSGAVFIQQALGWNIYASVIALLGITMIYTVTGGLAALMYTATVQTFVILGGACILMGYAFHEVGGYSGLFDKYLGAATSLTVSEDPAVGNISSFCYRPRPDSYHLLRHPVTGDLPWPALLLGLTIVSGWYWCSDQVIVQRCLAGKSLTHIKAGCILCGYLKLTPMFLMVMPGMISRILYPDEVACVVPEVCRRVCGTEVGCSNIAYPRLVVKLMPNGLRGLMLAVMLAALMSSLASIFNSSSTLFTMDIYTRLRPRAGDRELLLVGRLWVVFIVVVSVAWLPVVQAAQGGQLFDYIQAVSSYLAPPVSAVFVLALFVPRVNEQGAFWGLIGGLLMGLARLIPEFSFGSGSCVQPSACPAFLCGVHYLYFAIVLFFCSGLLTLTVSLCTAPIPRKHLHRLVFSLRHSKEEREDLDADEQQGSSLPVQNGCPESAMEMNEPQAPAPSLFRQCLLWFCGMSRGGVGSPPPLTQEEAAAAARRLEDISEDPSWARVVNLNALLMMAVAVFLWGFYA
T1 sequence (Q13113 1-114 partner): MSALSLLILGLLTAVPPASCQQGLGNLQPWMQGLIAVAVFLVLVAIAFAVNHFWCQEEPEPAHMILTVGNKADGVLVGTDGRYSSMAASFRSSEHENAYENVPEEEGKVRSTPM
Excerpt: hSGLT2 complementary DNA and human MAP17 cDNA were synthesized and codon-optimized for expression in human cell lines. Both cDNAs were cloned into the pcDNA3.4 vector. The hSGLT2 sequence was fused with an N-terminal signal sequence from human trypsinogen 1, a His10 tag, and sfGFP, followed by a human rhinovirus 3C protease (HRV3C protease) recognition site. Point mutations were introduced into this construct using site-directed mutagenesis. These plasmids were utilized for all experimental procedures conducted in this study.
(§1) To examine the inhibition of binding to the crude membrane, mammalian Expi293 cells were co-transfected with the hMAP17 and hSGLT2 plasmids, as described. The cells were collected and disrupted by sonication in a hypotonic buffer (50 mM HEPES–NaOH (pH 7.5), 10 mM KCl and protease inhibitor cocktail) or Na^+-free hypotonic buffer (50 mM Tris–HCl (pH 7.5), 10 mM KCl and protease inhibitor cocktail). The cell debris were removed by centrifugation (2,000g, 5 min, 4 °C). The membrane fraction was collected by ultracentrifugation (112,000g, 30 min, 4 °C) and stored at −80 °C before use. The crude membrane (250 μg per sample) was incubated with SGLT2 inhibitor in an assay buffer (100 mM NaCl and 10 mM HEPES/Tris, pH 7.4) or Na^+-free assay buffer (100 mM choline chloride and 10 mM HEPES/Tris, pH 7.4) at room temperature for 2 h. Reactions were terminated by filtration through a GF/C filter plate (Corning) presoaked in assay buffer containing 0.1% bovine serum albumin. The sample in the filter plate was washed three times with the assay buffer and eluted with acetonitrile: water (80:20, v/v). The extract solution from the filter plate was diluted with water containing candesartan as an internal standard, and the SGLT2 inhibitor concentration was quantified via LC–MS/MS.
(§2) Nonspecific binding was measured using the crude membrane of nontransfected Expi293 cells. Specific binding was calculated by subtracting nonspecific binding from the binding of hSGLT2-expressing cells. Specific binding was normalized to hSGLT2 protein expression levels, measured via FSEC. The equilibrium dissociation constant (Kd) and maximum number of binding sites (Bmax) were calculated via nonlinear regression in GraphPad Prism 8.4.3. The specific binding of the hSGLT2 mutants was normalized to the Bmax of WT hSGLT2.
(§3) The concentrations of the extract solution from the filter plate and of the cell lysate were quantified using a tandem mass spectrometry QTRAP6500 System (SCIEX) coupled with an ACQUITY UPLC system (Waters) using the internal standard method. Mobile phases A and B used 10 mM of ammonium bicarbonate and acetonitrile, respectively.

[1] = biological target: T2, wild-type hSGLT2 (membrane fraction of hSGLT2 and MAP17 expressing cells) (Homo sapiens, UniProt P31639); test: SGLT2 inhibitor-binding assay via affinity selection–mass spectrometry, crude membrane, WT; details: for Binding Mean: Eadie–Hofstee
T2 construct: expressed in transfected cells; host or cells: Expi293 cells, crude membrane fraction
T2 sequence (P31639 1-672): T1 sequence (P31639 1-672 D201A) with A201D
T2 sequence (Q13113 1-114 partner): T1 sequence (Q13113 1-114 partner)
Protocol: as §1, §2, §3

O=C(CCc1ccc(O)cc1)c1c(O)cc(O)cc1O[C@@H]1O[C@H](CO)[C@@H](O)[C@H](O)[C@H]1O [Phlorizin]
low-affinity binding phase (hSGLT2 D201A; D201A mutant): lost
Binding Mean (hSGLT2 D201A; D201A, phlorizin 25 nM (inferred)): 0.7940
Binding Mean (hSGLT2 D201A; D201A, phlorizin 50 nM (inferred)): 1.4992
Binding Mean (hSGLT2 D201A; D201A, phlorizin 100 nM (inferred)): 1.6708
Binding Mean (hSGLT2 D201A; D201A, phlorizin 200 nM (inferred)): 2.1498
Binding Mean (hSGLT2 D201A; D201A, phlorizin 300 nM (inferred)): 2.5194
Binding Mean (hSGLT2 D201A; D201A, phlorizin 500 nM (inferred)): 2.9852
Binding Mean (hSGLT2 D201A; D201A, phlorizin 1000 nM (inferred)): 3.0310
Binding Mean (hSGLT2 D201A; D201A, phlorizin 3000 nM (inferred)): 3.7555
Binding Mean (hSGLT2 D201A; D201A, phlorizin 5000 nM (inferred)): 2.5874
Bmax1 (hSGLT2 D201A; phlorizin, D201A, mean ± SEM n=3): 0.550 ± 0.028 pmol/mg-protein
Binding (% of hSGLT2) ([1]; 100 nM phlorizin, hSGLT2): 98.3721 % of hSGLT2 and 101.86 % of hSGLT2 and 99.7674 % of hSGLT2
Binding Mean ([1]; WT, phlorizin 25 nM (inferred from ratio, not given)): 1.1296
Binding Mean ([1]; WT, phlorizin 50 nM (inferred)): 1.8248
Binding Mean ([1]; WT, phlorizin 100 nM (inferred)): 2.4455
Binding Mean ([1]; WT, phlorizin 200 nM (inferred)): 3.2679
Binding Mean ([1]; WT, phlorizin 300 nM (inferred)): 3.8001
Binding Mean ([1]; WT, phlorizin 500 nM (inferred)): 6.2828
Binding Mean ([1]; WT, phlorizin 1000 nM (inferred)): 9.3101
Binding Mean ([1]; WT, phlorizin 3000 nM (inferred)): 21.0409
Binding Mean ([1]; WT, phlorizin 5000 nM (inferred)): 30.2579
binding kinetics (in words) ([1]; hSGLT2-expressing membrane, two binding sites (high- and low-affinity)): biphasic kinetics
saturation of binding to the hSGLT2-expressing membrane ([1]; phlorizin at up to 5,000 nM): did not saturate
Bmax1 ([1]; phlorizin, high-affinity site, WT, mean ± SEM n=3): 0.356 ± 0.069 pmol/mg-protein
Bmax2 ([1]; phlorizin, low-affinity site, WT, mean ± SEM n=3): 16.8 ± 7.4 pmol/mg-protein

Reference: PMC10803289, “Transport and inhibition mechanism of the human SGLT2–MAP17 glucose transporter” (Nature Structural & Molecular Biology, 2023)
